For this assay, the target named is T1, FCF19-FtsZ (Burkholderia cenocepacia, UniProt B4E5Y7, A348P/P347Q/Q349H).
T1 sequence (B4E5Y7 1-398 P347Q/A348P/Q349H): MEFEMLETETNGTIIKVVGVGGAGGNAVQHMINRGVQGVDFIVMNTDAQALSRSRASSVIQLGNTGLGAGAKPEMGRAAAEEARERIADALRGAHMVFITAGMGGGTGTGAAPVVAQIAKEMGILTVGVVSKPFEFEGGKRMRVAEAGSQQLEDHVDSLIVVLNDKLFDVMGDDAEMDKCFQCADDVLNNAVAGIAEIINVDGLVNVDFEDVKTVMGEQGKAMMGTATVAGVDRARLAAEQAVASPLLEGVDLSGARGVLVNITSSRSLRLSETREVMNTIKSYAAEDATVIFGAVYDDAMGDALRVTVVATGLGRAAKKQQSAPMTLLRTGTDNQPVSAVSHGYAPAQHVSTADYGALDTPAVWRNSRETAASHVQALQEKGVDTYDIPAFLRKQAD
Nature of the assay: FtsZ GTPase activity assay (kinetics and inhibition). Type of assay: biochemical.

A word on the IC50: it is the midpoint of a concentration-inhibition curve.

For `COC(=O)CSc1ccc2nsnc2c1[N+](=O)[O-]` [C109, methyl [(4-nitro-2,1,3-benzothiadiazol-5-yl)thio]acetate], 8.8 ± 1.6 µM corresponded to half-maximal inhibition (IC50).
